Experimental data as given in US8623821B2, “Zymogen activators” (Genentech, Inc., priority 2011, dated 2014).

Tested on: BxPC-3 cells
Assay: BxPC-3 cell survival assay, HGF proteins alone
Format: cell-based, human
Description: BxPC-3 cells were obtained from ATCC and maintained in cell culture medium (RPMI, 10% FBS (Sigma), 50 U/ml penicillin/50 μg/ml streptomycin, 2 mM glutamine). For the survival assay, cells were plated at 10,000 cells/well in 96 well tissue culture plates (Falcon 353072) in 50 μl assay diluent (RPMI, 0.1% BSA (Sigma) 50 U/ml penicillin/50 μg/ml streptomycin, 2 mM glutamine). Cells were allowed to attach for 1-2 h in a 37° C. CO2 incubator. Human HGF proteins (HGF, scHGF or scHGF plus peptide titrations) were pre-incubated at room temperature in assay diluent. HGF/peptide mixtures were added to cells in microtiter plates in triplicate at 50 μl per well and plates were incubated at 37° C. in a CO2 incubator. […] After 72 h, 25 μl alamar Blue (Serotec, BUF012B) was added to each well and incubate an additional 2 h at 37° C. in a CO2 incubator. Plates were agitated vigorously for 10 min at room temperature, and fluorescence was read at 530-590 nm in a fluorescent plate reader.

B1: scHGF: non-cleavable form of pro-HGF, inactive as a Met ligand (protein)
chain: QRKRRNTIHEFKKSAKTTLIKIDPALKIKTKKVNTADQCANRCTRNKGLPFTCKAFVFDKARKQCLWFPFNSMSSGVKKEFGHEFDLYENKDYIRNCIIGKGRSYKGTVSITKSGIKCQPWSSMIPHEHSFLPSSYRGKDLQENYCRNPRGEEGGPWCFTSNPEVRYEVCDIPQCSEVECMTCNGESYRGLMDHTESGKICQRWDHQTPHRHKFLPERYPDKGFDDNYCRNPDGQPRPWCYTLDPHTRWEYCAIKTCADNTMNDTDVPLETTECIQGQGEGYRGTVNTIWNGIPCQRWDSQYPHEHDMTPENFKCKDLRENYCRNPDGSESPWCFTTDPNIRVGYCSQIPNCDMSHGQDCYRGNGKNYMGNLSQTRSGLTCSMWDKNMEDLHRHIFWEPDASKLNENYCRNPDDDAHGPWCYTGNPLIPWDYCPISRCEGDTTPTIVNLDHPVISCAKTKQLRVVNGIPTRTNIGWMVSLRYRNKHICGGSLIKESWVLTARQCFPSRDLKDYEAWLGIHDVHGRGDEKCKQVLNVSQLVYGPEGSDLVLMKLARPAVLDDFVSTIDLPNYGCTIPEKTSCSVYGWGYTGLINYDGLLRVAHLYIMGNEKCSQHHRGKVTLNESEICAGAEKIGSGPCEGDYGGPLVCEQHKMRMVLGVIVPGRGCAIPNRPGIFVRVAYYAKWIHKIILTYKVPQS
200 ng/ml (FIG. 11A)
  stimulation of cell survival by HGF protein alone: no activity
400 ng/ml (FIG. 6A)
  stimulation of cell survival by HGF protein alone: no activity
